Results on one molecule are retold here after patent publication US20070172425A1, “Testing cell cycle regulation effect of a compound using a hollow fibre cell implant” (priority 2003, published 2007).

The structures appear in SMILES notation.

The nature of this data set: Maximum tolerated dose in nude mice.

As for `Cn1c(=O)c2c(ncn2C)n(C)c1=O` [Caffeine], the “maximum tolerated dose (MTD)” value turned out to be 150 mg/kg.
